Values quoted from earlier work, collected in patent US8889143B2, “Ii-key/HER-2/neu hybrid cancer vaccine” (Antigen Express, Inc., priority 2006, dated 2014).

Settings: cited from earlier work
[1] = Her-2/neu+ breast cancer patients

Substance: E75: immunogenic peptide of Her-2/neu used in clinical trials as vaccine
- Safety in patients [1]: safe in patients
- Stimulation of antigen specific immunity [1]: effective in stimulating antigen specific immunity
- Clinical benefit (breast cancer patients): clinical benefit in preventing recurrence of breast cancer
